This is an account of results in patent publication US20200270318A1.

Chains of the proteins cited; added tags and fusions are not shown. A line that says so, or that is headed by a name, gives the form on record, which may keep a tag or linker. Residues count along the entry.
human PAC1 receptor with 3 hemagglutinin (HA) tags, expressed in Chinese Hamster Ovary (CHO) cells (human), P41586, UniProt P41586, 21-468: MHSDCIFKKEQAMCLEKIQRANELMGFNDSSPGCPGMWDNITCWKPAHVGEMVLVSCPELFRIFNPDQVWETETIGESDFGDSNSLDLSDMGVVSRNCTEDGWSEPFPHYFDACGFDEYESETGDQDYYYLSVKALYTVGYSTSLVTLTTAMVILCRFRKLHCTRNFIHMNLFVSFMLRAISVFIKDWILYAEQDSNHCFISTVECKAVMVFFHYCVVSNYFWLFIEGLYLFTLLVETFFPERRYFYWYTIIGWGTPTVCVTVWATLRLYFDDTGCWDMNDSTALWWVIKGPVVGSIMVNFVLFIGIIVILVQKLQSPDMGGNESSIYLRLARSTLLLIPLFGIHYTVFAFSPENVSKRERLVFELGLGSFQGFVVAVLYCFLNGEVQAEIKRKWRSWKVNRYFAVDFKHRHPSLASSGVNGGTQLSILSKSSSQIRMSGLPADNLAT

The target of the test is human PAC1 receptor with 3 hemagglutinin (HA) tags, expressed in Chinese Hamster Ovary (CHO) cells (human), P41586. In words: cell-based or functional assay.

B1: PACAP1-27-S-G (peptide)
peptide: HSDGIFTDSYSRYRKQMAVKKYLAAVS
modifications: here or on the partner: Ser 27 O-β-D-Glc (replaces Leucine 27); C-terminal amide
As for B1, the EC50 (nM), calcium flux (FLIPR), agonist mode, PAC1-CHO cells worked out at 5.68 nM and the EMax (%), calcium flux (FLIPR), agonist mode, PAC1-CHO cells stood at 102%.
